Earlier results in patent US20170003257A1, “WETNESS INDICATOR WITH TWO COLORANTS AND TWO STABILIZERS” (The Procter & Gamble Company, priority 2015, published 2017).

In the case of Acid Fuchsin, the pKa (Table 1 colorants) is given as 13 and the pKa (colorant pKa as stated in running text) is given as “around 13”.

Like-named read-outs stand apart in the source and are kept apart here.
